# Assay outcomes as filed in PubChem BioAssay.
# miR-122 sensor – miR-122 Renilla sensor signal increase in Huh7, primary screen, miR-122 inhibitor project, cell-based, single point, plate reader. 340,000 compounds, 0.3% hits. Huh7 miR-122 Renilla luciferase sensor, 48 h; neutral wells = 0, positive control = 100. AID 602342, 2012. activation (reporter increase), % at 12.5 µM;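 active = mean replicate activation score at least 90 and every replicate individually at or above 90; inconclusive = only one of the two criteria met; inactive = neither criterion met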;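 note: higher luciferase means less miR-122 activity so hits act as miR-122 inhibitors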
# Wnt bcat act – Wnt/beta-catenin pathway activators, primary screen, cell-based, plate reader, single point; Wnt/beta-catenin reporter cell assay, activator; activation, % at 9.35 µM; 300,000 compounds, 1.2% hits; in the data active = activation above about 30%, passing the limit was not always enough; inconclusive = no clear call, values can overlap the other calls;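 note: 0% = neutral control wells and 100% = positive control wells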
# Yeast UUG start – modulators of yeast start codon fidelity, primary screen, whole organism, S. cerevisiae, single point, plate reader; S. cerevisiae UUG-firefly luciferase reporter, luminescence/redox ratio; activity score, % at 18.7 µM; actives 0.13% (n = 350,000); AID 602363, 2012;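 active = replicate mean at a twofold rise or more, about +100% in these data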;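 also: firefly luciferase made from a UUG start codon reports start codon fidelity; reporter light over untreated wells divided by growth signal over untreated wells; some hits fall short of that in this replicate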
# PGC1a acetyl inh – inhibitors of PGC1a acetylation signal, primary screen, cell-based, U2OS, AlphaScreen, inhibitor mode | AlphaScreen anti-acetyl-lysine; with virally co-expressed GCN5 acetyltransferase | inhibition, % at 15.6 µM | 350,000 compounds, 0.17% hits;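 active = every replicate shows inhibition of at least 40%; inconclusive = mean inhibition at least 40% but some replicate below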;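 note: 0% = neutral control wells and 100% = positive control wells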
# TRPM1 prom inh – inhibitors of MITF-dependent TRPM1 promoter reporter, primary screen, cell-based, SK-MEL-5, single point, luciferase; SK-MEL-5 TRPM1 promoter luciferase, 24 h; inhibition, % at 12.5 µM; 330,000 compounds, 0.83% hits;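 active = mean inhibition across replicates of 60% or more, whatever share of single replicates reaches that level; inconclusive = some that reach 60%, reason not given; inactive = mean inhibition across replicates below 60%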
# MITF act – activators of MITF-driven TRPM1 promoter reporter, primary screen, cell-based, SK-MEL-5, luciferase, single point. SK-MEL-5 TRPM1-promoter luciferase, 24 h; % of positive control, neutral wells = 0. activation, % at 12.5 µM. 300,000 compounds, 0.75% hits. AID 588334, 2011;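 active = mean activation of at least 80% with every replicate also reaching 80%; inconclusive = mean reaches 80% but some replicate falls short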;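 note: 0% = neutral control wells and 100% = parthenolide positive control wells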
# An asterisk follows results filed as active; ? = inconclusive; . = no result given; [ ] = dose if it differs, or a comment. An excerpt weighted towards active compounds, which were near 2.1% of everything screened.
miR-122 sensor | Wnt bcat act | Yeast UUG start | PGC1a acetyl inh | TRPM1 prom inh | MITF act | Compound
14 | 4 | . | ? | 13 | -13 | CC(=O)N(C1=C(N2CCOCC2)C(=O)c2ccccc2C1=O)c1ccc(C(=O)O)cc1
. | . | . | . | 89* | -87 | CC(=O)N(C)C1=C(N2CCOCC2)C(=O)c2ccccc2C1=O
4 | 49* | -13 | -1 | -10 | 9 | c1ccc(-c2nc3c4ccccc4ccn3c2CN2CCOCC2)cc1
-1[16.7 µM] | . | 7 | . | . | . | Cc1noc(C)c1S(=O)(=O)Nc1ccc2c(c1)C(=O)N([C@H](C)CO)C[C@H](C)[C@@H](CN(C)C(=O)NC1CCCCC1)OCCCC[C@H](C)O2
-14 | -2 | -6 | -16 | 8 | -11 | Cc1nn(C)c(C)c1/C=N/NC(=O)C(C)(C)Oc1ccc(Cl)cc1
-9 | -22 | -90 | -7 | 79* | . | Cc1nn(C(C)(C)C)c(C)c1/C=N/OC(=O)Nc1ccc(Cl)cc1
. | 41* | . | . | -23 | 23 | COc1ccc(-n2cc3ccc([N+](=O)[O-])cc3n2)cc1
-2 | -4 | -17 | 8 | 0 | 1 | COc1ccc(C2=NCCn3nc4cc([N+](=O)[O-])ccc4c32)cc1
. | . | . | 2 | . | . | COc1ccc(S(=O)(=O)N[C@@H]2C=C[C@@H](CC(=O)NCCc3ccncc3)O[C@H]2CO)cc1
. | 56* | . | -9 | -91 | . | COc1ccc(/C=N/N=C2/SCC(=O)N2Cc2ccccc2)cc1
3[16.7 µM] | . | . | -8 | . | . | C[C@H](CO)N1C[C@H](C)[C@@H](CN(C)Cc2ccc(Cl)c(Cl)c2)Oc2ccc(NC(=O)CCC(F)(F)F)cc2C1=O
. | . | . | . | 97* | -98 | CCOC(=O)COc1ccccc1/C=C\[N+](=O)[O-]
28 | 8 | -21 | 1 | 68* | -64 | COc1ccc(S(=O)(=O)Nc2cc(SCC(=O)O)c(O)c3ccccc23)cc1
. | 6 | -36 | . | 36 | -33 | O=C(O)CSc1cc(NS(=O)(=O)c2ccc(Cl)cc2)c2ccccc2c1O
. | -1 | . | . | -1 | -3 | CCCCC#Cc1cncc(C(=O)NN)c1
-2 | 42* | -6 | 1 | . | . | CCCCCCC#Cc1cncc(C(=O)NNC(=O)Nc2cc(Cl)cc(Cl)c2)c1
0[16.7 µM] | . | -5 | 8 | . | . | COCC(=O)Nc1ccc2c(c1)C(=O)N(C)C[C@H](OC)[C@@H](C)CN(Cc1cncnc1)[C@@H](C)CO2
1 | 35* | -13 | 2 | -43 | 47 | Oc1cccc(Nc2nc(O)c(/C=C3\C=Nc4ccccc43)s2)c1
. | 40* | . | . | -42 | 47 | Cc1noc(/C=C/Nc2ccc(F)cc2F)c1[N+](=O)[O-]
. | . | . | 69* | . | . | COc1ccc2c3c(n(C)c2c1)[C@H](CO)NCC31CCN(Cc2cc(-c3ccccc3)on2)CC1
6 | 34* | -17 | 0 | -51 | 54 | Fc1ccc(-c2cnc(-c3cccs3)o2)cc1
0 | -6 | . | 100* | -1 | 2 | COc1cccc(CN2CCC(CO)(CC3CCCCO3)CC2)c1 (stereo unspecified)
-1 | 41* | -13 | 2 | -128 | 125* | CN(C)/C=N/c1nc(-c2ccc3ccccc3c2)cs1
4 | 71* | -9 | -2 | -68 | 76 | CN(C)/C=N/c1nc(-c2ccc3c(c2)OCO3)cs1
-2 | -2 | -14 | -4 | 2 | 3 | CCN1CCN(CCCNC(=O)C2CCN(c3nnc(-n4cccc4)s3)CC2)CC1
6 | 2 | -14 | . | 90* | -90 | CCOc1ccc(NCc2cccn2-c2nnc(N3CCC(C(=O)NCCCN4CC(C)CC(C)C4)CC3)s2)cc1 (stereo unspecified)
135* | -2 | 0 | 1 | 4 | -2 | NC(=O)Cn1cc(/C=N\NS(=O)(=O)c2ccc(F)cc2)c2ccccc21
2 | 0 | . | . | 12 | -9 | Cc1ccccc1Cn1ccc(NC(=O)c2cc3ncc(Br)cn3n2)n1
6 | 35* | . | 0 | -71 | 73 | CSc1ccccc1NC(=O)c1cc2ncc(Br)cn2n1
7 | 36* | . | -1 | -45 | 41 | Nc1nc(N)nc(-c2cccc(Br)c2)n1
-1[16.7 µM] | . | . | -5 | . | . | C[C@@H]1CCCCO[C@@H](CN(C)C(=O)c2ccncc2)[C@H](C)CN([C@H](C)CO)C(=O)c2cc(NC(=O)c3ccncc3)ccc2O1
-7 | . | -14 | 1 | 5 | -6 | Cc1onc(-c2ccccc2Cl)c1C(=O)NCC1CCCO1 (stereo unspecified)
-2 | -4 | -8 | -19 | -121 | 130* | O=C(NCC1CCCO1)c1ccc(-c2ccccc2Cl)o1 (stereo unspecified)
. | 2 | . | . | -84 | 88* | O=C(NC(=S)NCC1CCCO1)c1ccc(Cl)cc1 (stereo unspecified)
. | . | -19 | -21 | . | . | O=C(NCC[C@@H]1CC[C@@H](NC(=O)C2CC2)[C@@H](CO)O1)c1ccc(F)cc1
17 | . | 9 | 0 | 2 | -1 | COc1ccc(OC)c(S(=O)(=O)N2CCCCCC2)c1
135* | -2 | . | -4 | 7 | -6 | O=S(=O)(c1ccc(Cl)cc1)N1CCC2(CC1)OCCN2S(=O)(=O)c1cccs1
172* | 1 | 7 | 5 | 3 | -1 | COc1ccc(OC)c(S(=O)(=O)N2CCNCC2)c1
107* | -5 | -10 | . | -4 | 4 | COc1ccc(OC)c(S(=O)(=O)N2CCC3(CC2)OCCN3S(=O)(=O)c2cccs2)c1
75 | 0 | -3 | 0 | 8 | -6 | COc1ccc(S(=O)(=O)N2CCC3(CC2)OCCN3S(=O)(=O)c2cccs2)cc1
1[16.7 µM] | . | -8 | 1 | . | . | C[C@H](CO)N1C[C@H](C)[C@@H](CN(C)C(=O)Nc2ccc(F)cc2)Oc2ccc(NC(=O)CCN3CCOCC3)cc2C1=O
0 | 0 | -5 | 91* | -7 | 3 | c1ccc(N2CCN(c3ccccc3)C2c2ccncc2)cc1
-3 | 1 | -5 | -5 | -10 | 9 | c1ccc(N2CCN(c3ccccc3)C2c2cccnc2)cc1
-9[16.7 µM] | . | 6 | 1 | . | . | COc1ccccc1S(=O)(=O)N[C@H]1CC[C@@H](CC(=O)N2CCN(C)CC2)O[C@H]1CO
. | . | . | -10 | . | . | COc1ccc2c3c(n(C)c2c1)[C@@H](CO)N(S(=O)(=O)c1ccc(C)cc1)CC31CN(S(=O)(=O)c2ccc(C)cc2)C1
. | . | . | . | -91 | 93* | CC(C)c1ccc(/C=N/NC(=O)c2c(Cl)cnn2C)cc1
-6[16.7 µM] | . | . | -2 | . | . | O=C(C[C@@H]1C[C@H]2c3cc(NC(=O)Nc4ccc(C(F)(F)F)cc4)ccc3O[C@H]2[C@H](CO)O1)NCc1cccnc1
-7 | 47* | -12 | -3 | -48 | . | Nc1ncccc1OCc1ccc(Cl)c(Cl)c1
